Source: ChEMBL document CHEMBL3425429

Columns and labels:
[1] = Cytotoxicity against human SKBR3 cells assessed as cell viability after 72 hrs by MTT assay; assay type: functional, cell-based; conditions: SK-BR-3, 72 h
[2] = Cytotoxicity against human OCI-LY10 cells assessed as cell viability after 72 hrs by MTT assay; assay type: functional, cell-based; conditions: OCI-Ly10, 72 h
[3] = Cytotoxicity against human MM1S cells assessed as cell viability after 72 hrs by MTT assay; assay type: functional, cell-based; conditions: MM1.S
[4] = test system: THP-1; test: Cytotoxicity against human THP1 cells assessed as cell viability after 72 hrs by MTT assay; assay type: functional, cell-based; conditions: THP-1, 72 h
[5] = Cytotoxicity against human U87MG cells assessed as cell viability after 72 hrs by MTT assay; assay type: functional, cell-based, U-87MG ATCC; conditions: U-87 MG
[6] = test system: HeLa; test: Cytotoxicity against human HeLa cells assessed as cell viability after 72 hrs by MTT assay; assay type: functional, cell-based
[7] = test system: NCI-H358; test: Cytotoxicity against human NCI-H358 cells assessed as cell viability after 72 hrs by MTT assay; assay type: functional, cell-based; conditions: NCI-H358, 72 h
[8] = test system: A2058; test: Cytotoxicity against human A2058 cells assessed as cell viability after 72 hrs by MTT assay; assay type: functional, cell-based; conditions: A2058, 72 h
[9] = Cytotoxicity against human PANC1 cells assessed as cell viability after 72 hrs by MTT assay; assay type: functional, cell-based; conditions: PANC-1, 72 h
[10] = test system: HepG2; test: cells; conditions: Homo sapiens, HepG2, 72 h

IC50 [10]: 8.67 µM
Structure (SMILES): CCn1nc(C#Cc2cc(C(=O)Nc3ccc(CN4CCN(C)CC4)c(C(F)(F)F)c3)ccc2C)c2c(N)ncnc21
IC50 [1]: 4.52 µM
IC50 [2]: 2.17 µM
IC50 [3]: 0.872 µM
IC50 [4]: 5.11 µM
IC50 [5]: 0.742 µM
IC50 [6]: 5.41 µM
IC50 [7]: 1.67 µM
IC50 [8]: 1.91 µM
IC50 [9]: 6.56 µM
